Measurements as given in patent publication US11235020B2, “Methods and compositions for inhibiting glyoxalase 1 (GLO1)” (priority 2013, dated 2022).

Columns and labels:
[1] = HPLC measurement of MG concentration in whole brain after i.p. MG; type: in vivo, mouse; settings: vehicle = 100
Description: MG concentration was measured by HPLC as previously described with modifications (Dhar 2009). Tissue was homogenized in 50 mM sodium phosphate buffer (pH 6.6) and 0.8N perchloric acid. It was then incubated on ice for 10 minutes and centrifuged. The supernatant was filtered, and MG was derivatized with 10 mM o-phenylenediamine to form 2-methylquinoxaline (2-MQ). 5-methylquinoxaline (5-MQ, 15 μM) was spiked into each sample as an internal standard. 2-MQ was quantified using an HP 1100 HPLC system (Agilent) with a Nova-Pak C18 column (Waters Corporation). Column effluent was monitored at 315 nm. 2-MQ concentration was determined by comparison to 2-MQ standards of known mass. Quantification of 2-MQ was corrected for losses by comparison with 5-MQ. MG concentration was calculated as 2-MQ/tissue weight. Treatment: Unless otherwise noted, crude MG was used for all behavioral experiments. MG was obtained from Sigma-Aldrich, filter-sterilized (0.22 μm filter, Millipore), diluted in vehicle (0.9% NaCl), and adjusted to pH 7.4. Mice were injected i.p. with 10 ml/kg MG or vehicle. HPLC: Ten minutes post-injection, mice were sacrificed, and brains were rapidly dissected and flash-frozen on dry ice. MG concentration was measured as described above.

[2] = test system: GABAA receptors in cerebellar granule neurons; assay: Whole-cell patch clamp in cerebellar granule neurons (CGN); type: cell-based, rat
[3] = test system: GABAA receptors in hippocampal neurons; assay: Whole-cell patch clamp in hippocampal neurons (HN); type: cell-based, rat
apoptosis in the brain = settings: 24 hours after treatment
[4] = 100 μM MG + 100 μM GABA vs 100 μM GABA alone

In the case of CC(=O)C=O [MG, methylglyoxal], the “Relative MG concentration (%)” value ([1]; MG 50 mg/kg i.p.) is reported as 115.75%, the “Relative MG concentration (%)” value ([1]; MG 100 mg/kg i.p.) is reported as 127.40% and the “Relative MG concentration (%)” value ([1]; MG 300 mg/kg i.p.) is reported as 160.94%. For the same compound, the “current on co-application with GABA, relative to GABA alone, in CGN” value [2, 4] was “approximately 60%”, the “relative amplitude of MG-evoked current versus GABA in CGN” value ([2]; 100 μM MG vs 100 μM GABA) was “approximately one-third the magnitude of that elicited by 100 μM GABA” and the “Hill co-efficient, depolarization of CGN” value ([2]; whole-cell current clamp) was 1.17. The “Hill co-efficient, inward currents in CGN” value ([2]; whole-cell voltage clamp) was 1.13, the “Hill co-efficient, currents in hippocampal neurons” value [3] was 1.05 and the “current on co-application with GABA, relative to GABA alone, in hippocampal neurons” value [3, 4] was “approximately 60%”. The “apoptosis in the brain (TUNEL)” value (apoptosis in the brain; MG 50 mg/kg i.p.) was “no evidence of increased apoptosis” and the “apoptosis in the brain (TUNEL)” value (apoptosis in the brain; MG 300 mg/kg i.p.) was “non-significantly increased apoptosis”.

Read-outs that look alike come from different tables or passages of the source.
